System: ICR mice
Assay: Assessment of CNS effects (spontaneous locomotion, sedation, catalepsy), threshold dose
Format: in vivo
Details: lowest dose which shows pharmacodynamic effect (locomotion, sedation, catalepsy), oral or i.v.
Method: All the animal experiments were carried out in ICR mice, bred in-house. Animals were housed in groups of 6 animals per cage, for a week, in order to habituate them to vivarium conditions (25±4° C., 60-65% relative humidity, 12:12 h light: dark cycle, with lights on at 7.30 am). All the animal experiments were carried out according to the internationally valid guidelines following approval by the ‘Zydus Research Center animal ethical committee’.
Assessment of CNS Effects of Test Compounds
Test compounds were dissolved in normal saline injected by oral or i.v., routes in ICR mice tail vein. […] The dose is scaled down or up if pharmacodynamic effect is present or absent respectively.

For “N-((S)-2-((S)-3-hydroxypyrrolidin-1-yl)-1-phenylethyl)- N-methyl-2-((8-sulfonamido)-1,2,3,4-tetrahydroquinolin- 5-yloxy)acetamide [Compound 37]”, the “CNS TD” value was 60 mg/kg.
